Among the data in patent US9718803B2 (AMGEN INC., priority 2010, dated 2017) are IC50 values, retold here.

This test deals with PDE10 enzyme. The experiment in a line: MPDE10A7 enzyme activity and inhibition (IMAP TR-FRET assay). The format is biochemical. (In TR-FRET formats the signal depends on donor and acceptor labels being close together.)
Setting [1] is: Table 18A, Examples 6.1 to 6.60, PDE10 inhibition.
The mark [2] stands for this setting: Table 16A, Examples 4.1 to 4.45, PDE10 inhibition.
The mark [3] stands for this setting: PDE10 IC50, Table 15A, fluorescein labeled cAMP or cGMP substrate.
[4] abbreviates: PDE10 IC50, Table 14A, fluorescein labeled cAMP or cGMP substrate.
The mark [5] stands for this setting: Table 17A, Examples 5.1 to 5.43, PDE10 inhibition.

Turning to `Cc1cn(-c2nccnc2C2CN(c3ccc4ccccc4n3)C2)cn1` [Example 6.52, 2-(3-(3-(4-methyl-1H-imidazol-1-yl)pyrazin-2-yl)azetidin-1-yl)quinoline], under setting [1], the midpoint of inhibition, the IC50, lay at 5 nM.

In the case of `Cc1cccc(-c2cccnc2C2CN(c3ccc4ccccc4n3)C2)c1` [Example 18.2, 2-[3-(3-m-Tolyl-pyridin-2-yl)-azetidin-1-yl]-quinoline], for the setting “PDE10, Table 25A”, the IC50 came out at 6.09 nM.

For `Oc1ccc(-c2nccnc2C2CN(c3ccc4ccccc4n3)C2)cc1Cl` [Example 4.23, 2-chloro-4-(3-(1-(quinolin-2-yl)azetidin-3-yl)pyrazin-2-yl)phenol], under setting [2], the IC50 was 0.0023 nM.

As to `O=C(c1nc2ccccc2[nH]1)N1CC(c2nccnc2N2CCC(O)CC2)C1` [Example 3.51, (1H-benzo[d]imidazol-2-yl)(3-(3-(4-hydroxypiperidin-1-yl)pyrazin-2-yl)azetidin-1-yl)methanone], 23.3 nM corresponded to half-maximal inhibition under setting [3] (IC50).

In the case of `Cc1cnn(-c2nccnc2C2CN(c3ccc4ccccc4n3)C2)c1` [Example 6.49, 2-(3-(3-(4-methyl-1H-pyrazol-1-yl)pyrazin-2-yl)azetidin-1-yl)quinoline], the IC50 under setting [1] stood at 20 nM.

Under setting [1], `F[C@H]1CCN(c2nccnc2C2CN(c3ccc4ccccc4n3)C2)C1` [Example 6.20, (S)-2-(3-(3-(3-fluoropyrrolidin-1-yl)pyrazin-2-yl)azetidin-1-yl)quinoline] returned an IC50 of 23 nM.

Take `COc1cccc(-c2nccnc2C2CN(c3ccc4ccccc4n3)C2)n1` [Example 4.14, 2-(3-(3-(6-methoxypyridin-2-yl)pyrazin-2-yl)azetidin-1-yl)quinoline]: under setting [2], it took 0.0012 nM to reach half-maximal inhibition (IC50).

With `Cc1cc(Cl)cc(-c2nccnc2C2CN(c3ccc4ccccc4n3)C2)c1` [Example 4.37, 2-(3-(3-(3-chloro-5-methylphenyl)pyrazin-2-yl)azetidin-1-yl)quinoline], half-maximal inhibition under setting [2] (IC50) was put at 0.0072 nM.

Take `Cc1cccc(-c2nccnc2C2CN(c3ncc4ccccc4n3)C2)c1` [Example 17.2, 2-[3-(3-m-Tolyl-pyrazin-2-yl)-azetidin-1-yl]-quinazoline]: under “PDE10, Table 24A”, it took 12 nM to reach half-maximal inhibition (IC50). In other words, the double-digit nanomolar range.

For `O=C(c1nc2ccccc2[nH]1)N1CC(c2nccnc2N2CCCOCC2)C1` [Example 3.36, (1H-Benzoimidazol-2-yl)-[3-(3-[1,4]oxazepan-4-yl-pyrazin-2-yl)-azetidin-1-yl]-methanone], the IC50 under setting [3] was found to be 62.7 nM.

`N#Cc1cccc(-c2nccnc2C2CN(C(=O)c3nc4ccccc4[nH]3)C2)c1` [Example 2.30, 3-(3-(1-(1H-benzo[d]imidazole-2-carbonyl)azetidin-3-yl)pyrazin-2-yl)benzonitrile] had an IC50 under setting [4] of 226 nM.

`COc1cccc(-c2nccnc2C2CN(c3nccc(-c4ccccc4)n3)C2)c1` [Example 29.9, 2-(3-(3-(3-methoxyphenyl)pyrazin-2-yl)azetidin-1-yl)-4-phenylpyrimidine]: the IC50 (PDE10, Table 33A) worked out at 4300 nM.

In the case of `O=C(c1nc2ccccc2[nH]1)N1CC(c2nccnc2-c2ccc(CO)cc2)C1` [Example 2.20, (1H-Benzoimidazol-2-yl)-{3-[3-(4-hydroxymethyl-phenyl)-pyrazin-2-yl]-azetidin-1-yl}-methanone], the midpoint of inhibition under setting [4], the IC50, lay at 39.8 nM. This lies in the double-digit nanomolar range.

As for `Cc1cccc(-c2nccnc2C2CN(c3nc4ccccc4s3)C2)c1` [Example 17.4, 2-[3-(3-m-Tolyl-pyrazin-2-yl)-azetidin-1-yl]-benzothiazole], the IC50 (PDE10, Table 24A) was found to be 31.9 nM.

Take `CN(C)S(=O)(=O)c1cccc(-c2nccnc2C2CN(c3ccc4ccccc4n3)C2)c1` [Example 5.33, N,N-dimethyl-3-(3-(1-(quinolin-2-yl)azetidin-3-yl)pyrazin-2-yl)benzenesulfonamide]: under setting [5], the IC50 is 17 nM.

Take `COC(=O)c1cccc(-c2nccnc2C2CN(c3ccc4ccccc4n3)C2)c1` [Example 5.9, methyl 3-(3-(1-(quinolin-2-yl)azetidin-3-yl)pyrazin-2-yl)benzoate]: the IC50 under setting [5] worked out at 0.2 nM.

`c1ccc2nc(N3CC(c4nccnc4N4CCOCC4)C3)ccc2c1` [Example 6.43, 4-(3-(1-(quinolin-2-yl)azetidin-3-yl)pyrazin-2-yl)morpholine] came in with an IC50 under setting [1] of 14.7 nM.

Under setting [1], `c1ccc(CC2CCN(c3nccnc3C3CN(c4ccc5ccccc5n4)C3)C2)cc1` (stereo not shown) [Example 6.3, (R- & S-)-2-(3-(3-(3-benzylpyrrolidin-1-yl)pyrazin-2-yl)azetidin-1-yl)quinoline] had an IC50 of 5 nM.

Under “PDE10, Table 32A”, `Cc1cccc(N2CC(c3nccnc3N3CCC(CO)CC3)C2)n1` [Example 28.7, (1-{3-[1-(6-Methyl-pyridin-2-yl)-azetidin-3-yl]-pyrazin-2-yl}-piperidin-4-yl)-methanol] registered an IC50 of 217 nM. This counts as sub-micromolar.

`COc1cncc(-c2nccnc2C2CN(C(=O)c3nc4ccccc4[nH]3)C2)c1` [Example 2.12, (1H-Benzoimidazol-2-yl)-{3-[3-(5-methoxy-pyridin-3-yl)-pyrazin-2-yl]-azetidin-1-yl}-methanone] returned an IC50 under setting [4] of 640 nM. This lies in the sub-micromolar range.

Under setting [2], `Fc1cncc(-c2nccnc2C2CN(c3ccc4ccccc4n3)C2)c1` [Example 4.7, 2-(3-(3-(5-fluoropyridin-3-yl)pyrazin-2-yl)azetidin-1-yl)quinoline] gave a half-inhibitory concentration (IC50) of 0.0123 nM.

In turn, `CC(=O)N1CCN(c2nccnc2C2CN(C(=O)c3nc4ccccc4[nH]3)C2)CC1` [Example 3.47, 1-(4-(3-(1-(1H-benzo[d]imidazole-2-carbonyl)azetidin-3-yl)pyrazin-2-yl)piperazin-1-yl)ethanone] displayed an IC50 under setting [3] of 192 nM. This lies in the sub-micromolar range.

Under setting [3], `O=C(c1nc2ccccc2[nH]1)N1CC(c2nccnc2NC2CCCC2)C1` [Example 3.22, (1H-Benzoimidazol-2-yl)-[3-(3-cyclopentylamino-pyrazin-2-yl)-azetidin-1-yl]-methanone] had an IC50 of 36.3 nM. Against the preceding molecule, the IC50 is about 5.3-fold lower.

`FC1(F)CN(c2nccnc2C2CN(c3ccc4ccccc4n3)C2)C1` [Example 6.46, 2-(3-(3-(3,3-difluoroazetidin-1-yl)pyrazin-2-yl)azetidin-1-yl)quinoline]: the IC50 under setting [1] came out at 27 nM.

For the molecule `Cc1ccccc1-c1nccnc1C1CN(c2ncc3ccccc3n2)C1` [Example 10.4, 2-(3-(3-(o-tolyl)pyrazin-2-yl)azetidin-1-yl)quinazoline], under “PDE10, Table 22A”, half-maximal inhibition (IC50) was put at 17.8 nM. In other words, the double-digit nanomolar range.

In the case of `O=C(c1nc2ccccc2[nH]1)N1CC(c2nccnc2N2CCC(CO)C2)C1` (stereo not shown) [Example 3.40, (R & S)-(1H-Benzoimidazol-2-yl)-{3-[3-(3-hydroxymethyl-pyrrolidin-1-yl)-pyrazin-2-yl]-azetidin-1-yl}-methanone], under setting [3], half-maximal inhibition (IC50) required 66.5 nM.

As to `Cc1ccc(-c2nccnc2C2CN(c3ccc4ccccc4n3)C2)cc1F` [Example 4.22, 2-(3-(3-(3-fluoro-4-methylphenyl)pyrazin-2-yl)azetidin-1-yl)quinoline], the IC50 under setting [2] was 0.0042 nM.

In turn, `CCCc1ccc(-c2nccnc2C2CN(c3ccc4ccccc4n3)C2)cc1` [Example 5.36, 2-(3-(3-(4-propylphenyl)pyrazin-2-yl)azetidin-1-yl)quinoline] registered an IC50 under setting [5] of 9.95 nM.

As to `COc1ncccc1-c1nccnc1C1CN(c2ccc3ccccc3n2)C1` [Example 4.1, 2-(3-(3-(2-methoxypyridin-3-yl)pyrazin-2-yl)azetidin-1-yl)quinoline], under setting [2], the IC50 was determined as 0.00234 nM. This lies in the picomolar range.

In turn, `Cc1ccc(C(=O)N2CC(c3nccnc3-c3ccccc3)C2)nc1` [Example 1.14, (5-methylpyridin-2-yl)(3-(3-phenylpyrazin-2-yl)azetidin-1-yl)methanone] had an IC50 (PDE10 IC50, Table 13A, fluorescein labeled cAMP or cGMP substrate) of 2030 nM.

The molecule `O=C(c1nc2ccccc2[nH]1)N1CC(c2nccnc2N2CCCC(CO)C2)C1` (stereo not shown) [Example 3.28, (R & S)-(1H-Benzoimidazol-2-yl)-{3-[3-(3-hydroxymethyl-piperidin-1-yl)-pyrazin-2-yl]-azetidin-1-yl}-methanone] showed an IC50 under setting [3] of 20.6 nM.

Consider `Cn1c(C(=O)N2CC(c3nccnc3-c3ccccc3)C2)nc2ccccc21` [Example 2.1, (1-Methyl-1H-benzoimidazol-2-yl)-[3-(3-phenyl-pyrazin-2-yl)-azetidin-1-yl]-methanone], for which, under setting [4], half-maximal inhibition (IC50) required 181 nM.

`FC(F)(F)c1cccc(-c2nccnc2C2CN(c3ccc4ccccc4n3)C2)c1` [Example 5.26, 2-(3-(3-(3-(trifluoromethyl)phenyl)pyrazin-2-yl)azetidin-1-yl)quinoline] displayed an IC50 under setting [5] of 13.4 nM.

Molecule `CN(C)C(=O)c1cccc(-c2nccnc2C2CN(c3ccc4ccccc4n3)C2)c1` [Example 5.24, N,N-dimethyl-3-(3-(1-(quinolin-2-yl)azetidin-3-yl)pyrazin-2-yl)benzamide] registered an IC50 under setting [5] of 18 nM.

Take `COCC1CCN(c2nccnc2C2CN(c3ccc4ccccc4n3)C2)C1` (stereo not shown) [Example 6.39, (R- & S-)-2-(3-(3-(3-(methoxymethyl)pyrrolidin-1-yl)pyrazin-2-yl)azetidin-1-yl)quinoline]: under setting [1], half-maximal inhibition (IC50) was put at 6.66 nM.

`COCCNc1nccnc1C1CN(C(=O)c2nc3ccccc3[nH]2)C1` [Example 3.26, (1H-benzo[d]imidazol-2-yl)(3-(3-((2-methoxyethyl)amino)pyrazin-2-yl)azetidin-1-yl)methanone] showed an IC50 under setting [3] of 58.6 nM. This lies in the double-digit nanomolar range.

`Fc1ccc(-c2nccnc2C2CN(c3ccc4ccccc4n3)C2)cc1F` [Example 4.33, 2-(3-(3-(3,4-difluorophenyl)pyrazin-2-yl)azetidin-1-yl)quinoline]: half-maximal inhibition under setting [2] (IC50) required 0.0099 nM.

Under setting [1], `CC(C)(C)OC(=O)NC1CN(c2nccnc2C2CN(c3ccc4ccccc4n3)C2)C1` [Example 6.50, tert-butyl (1-(3-(1-(quinolin-2-yl)azetidin-3-yl)pyrazin-2-yl)azetidin-3-yl)carbamate] returned a 50% inhibitory concentration (IC50) of 5.6 nM.

In the case of `Clc1ccccc1-c1nccnc1C1CN(c2ncc3ccccc3n2)C1` [Example 10.3, 2-(3-(3-(2-chlorophenyl)pyrazin-2-yl)azetidin-1-yl)quinazoline], half-maximal inhibition (PDE10, Table 22A) (IC50) was put at 30.9 nM.

In turn, `CCOc1ccc(-c2nccnc2C2CN(c3ccc4ccccc4n3)C2)cc1Cl` [Example 4.26, 2-(3-(3-(3-chloro-4-ethoxyphenyl)pyrazin-2-yl)azetidin-1-yl)quinoline] yielded an IC50 under setting [2] of 0.0106 nM. This counts as picomolar.

As a reminder, the IC50 is the concentration at which inhibition is half-maximal. High values mean a need for much substance, low ones inhibition by little substance.
